# Patent US6825354B2 (Wyeth Holdings Corporation, priority 1999, dated 2004)
# Chains of the proteins cited; added tags and fusions are not shown. Residues count along the entry.
# UniProt P78536, 215-824: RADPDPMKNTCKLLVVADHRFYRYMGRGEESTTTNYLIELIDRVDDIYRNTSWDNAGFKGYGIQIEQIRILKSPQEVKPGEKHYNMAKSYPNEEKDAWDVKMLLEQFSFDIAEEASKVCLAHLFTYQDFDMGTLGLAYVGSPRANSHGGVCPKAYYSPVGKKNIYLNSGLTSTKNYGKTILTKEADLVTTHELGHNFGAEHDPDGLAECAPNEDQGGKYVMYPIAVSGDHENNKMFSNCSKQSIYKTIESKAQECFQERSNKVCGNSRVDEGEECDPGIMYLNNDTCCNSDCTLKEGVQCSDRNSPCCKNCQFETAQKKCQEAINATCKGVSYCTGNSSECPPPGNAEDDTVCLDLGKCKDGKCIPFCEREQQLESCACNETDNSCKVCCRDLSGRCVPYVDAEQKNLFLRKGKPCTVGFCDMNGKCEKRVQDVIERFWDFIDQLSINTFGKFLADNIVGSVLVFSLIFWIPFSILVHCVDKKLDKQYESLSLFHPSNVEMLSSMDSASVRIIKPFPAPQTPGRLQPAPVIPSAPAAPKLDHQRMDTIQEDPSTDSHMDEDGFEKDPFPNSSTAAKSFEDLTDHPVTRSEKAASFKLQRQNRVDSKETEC
# Molecular target: TNF-α converting enzyme (TACE) (Homo sapiens, UniProt P78536)
# Assay: TACE inhibition, fluorescent peptidyl substrate
# Type: biochemical
smiles,measurement,value
"CC#CCOc1ccc([S+]([O-])[C@@H](C(=O)NO)C(C)C)cc1 (stereo partly shown) [Example 108, R-2-{[4-(2-butynyloxy)phenyl]sulfinyl}-2-isopropyl-N-hydroxyacetamide]",IC50,48 nM
